Data on one compound can be found in paper PMC6419571, “Discovery and lead optimisation of a potent, selective and orally bioavailable RARβ agonist for the potential treatment of nerve injury” (Bioorganic & Medicinal Chemistry Letters, 2019).

Protein sequences, listed by entry. Tags and fused reporters are not part of them. Residues count along the entry.
UniProt P22605, 210-444 limits assumed: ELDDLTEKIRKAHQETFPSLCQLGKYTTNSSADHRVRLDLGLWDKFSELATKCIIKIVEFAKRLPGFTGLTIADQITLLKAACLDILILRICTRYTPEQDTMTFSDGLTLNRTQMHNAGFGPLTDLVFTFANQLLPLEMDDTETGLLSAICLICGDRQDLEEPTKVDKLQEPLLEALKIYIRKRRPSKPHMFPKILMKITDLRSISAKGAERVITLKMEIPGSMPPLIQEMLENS

The experiment deals with T1, RARβ (Mus musculus, UniProt P22605).
T1 construct: expressed in transfected cells; host or cells: COS-7
Nature of the experiment: RAR beta transactivation assay (gal4-RAR LBD fusion, luciferase reporter, COS-7 cells). Format: cell-based. The procedure:
Compounds were tested in transactivation assays at the RAR α, β and γ receptors.
Transactivation assays for RAR alpha, beta and gamma receptors:
Transcriptional transactivation assays have been performed with gal4 fusion receptor constructs, created using each of the mouse RAR ligand-binding domains, co-transfected with the pFR-luc (Stratagene) reporter construct in COS-7 cells.
Briefly, on day one, 96 well plates were seeded with 8000 cells per well then left to recover overnight. On day two, the cells were co-transfected with 100ng of reporter plasmid and 10ng of the appropriate receptor plasmid per well using lipofectamine (Invitrogen). On day three, the lipofectamine containing media was replaced by a DMEM without phenol red, followed by the addition of novel compounds dissolved in 1µl of DMSO to each well’s 100µl total volume. Finally, on day four, the cells were lysed and their luciferase substrate was provided by the BrightGlo reagent (Promega), the plates were then read on the MicroBeta TriLux (Perkin Elmer).
Data for test compounds are quoted as EC50 values. Where replicate data has been generated the data are quoted as the mean EC50 from the separate experiments.
On the technique in general: A reporter such as luciferase makes a cellular process visible.

Turning to `COc1ccc(-c2ccc3cc(C(=O)O)ccc3c2)cc1C1(C)CCCCC1` [CD 2019, reference compound], where the note is “EC50 ratio of α to β, Tables 1 and 4”, the “Fold selectivity for β over α” value is given as 11. In addition, for the setting “EC50 ratio of γ to β”, the “Fold selectivity for β over γ” value is listed as 1.9.
